Read-outs that look alike come from different tables or passages of the source.
What was measured:
[1] = target: T1, CDK2/Cyclin E (Homo sapiens, UniProt P24864); test: CDK2/Cyclin E kinase assay, phosphorylation of GST-Rb; type: biochemical
T1 construct: 6xHis; made in house; host or cells: Sf9 insect cells (baculovirus co-expression)

Protein sequences, listed by entry. Tags and fused reporters are not part of them.
UniProt P14635, whole entry: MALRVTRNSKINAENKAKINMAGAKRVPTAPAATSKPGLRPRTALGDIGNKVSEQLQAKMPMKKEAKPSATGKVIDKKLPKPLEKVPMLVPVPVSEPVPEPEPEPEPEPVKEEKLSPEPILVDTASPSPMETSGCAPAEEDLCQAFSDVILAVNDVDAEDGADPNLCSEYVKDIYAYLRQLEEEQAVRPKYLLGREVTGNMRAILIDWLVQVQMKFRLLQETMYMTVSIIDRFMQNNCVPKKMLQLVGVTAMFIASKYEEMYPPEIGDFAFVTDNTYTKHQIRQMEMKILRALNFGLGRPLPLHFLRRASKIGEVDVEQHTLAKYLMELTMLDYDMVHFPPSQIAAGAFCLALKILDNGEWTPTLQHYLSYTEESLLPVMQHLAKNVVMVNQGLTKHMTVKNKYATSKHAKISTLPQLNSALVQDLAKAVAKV
UniProt P20248, whole entry: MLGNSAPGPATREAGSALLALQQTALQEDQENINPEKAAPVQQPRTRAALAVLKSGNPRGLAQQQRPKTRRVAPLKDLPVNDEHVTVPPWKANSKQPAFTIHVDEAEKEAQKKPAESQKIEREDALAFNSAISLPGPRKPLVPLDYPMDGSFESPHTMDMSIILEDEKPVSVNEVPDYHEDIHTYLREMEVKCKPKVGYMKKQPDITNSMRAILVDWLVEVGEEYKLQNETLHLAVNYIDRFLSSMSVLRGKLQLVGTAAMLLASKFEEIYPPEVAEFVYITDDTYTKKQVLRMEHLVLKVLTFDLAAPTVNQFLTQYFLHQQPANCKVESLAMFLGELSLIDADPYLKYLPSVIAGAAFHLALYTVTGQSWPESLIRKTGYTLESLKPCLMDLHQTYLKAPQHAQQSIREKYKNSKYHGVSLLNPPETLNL
UniProt P24385, whole entry: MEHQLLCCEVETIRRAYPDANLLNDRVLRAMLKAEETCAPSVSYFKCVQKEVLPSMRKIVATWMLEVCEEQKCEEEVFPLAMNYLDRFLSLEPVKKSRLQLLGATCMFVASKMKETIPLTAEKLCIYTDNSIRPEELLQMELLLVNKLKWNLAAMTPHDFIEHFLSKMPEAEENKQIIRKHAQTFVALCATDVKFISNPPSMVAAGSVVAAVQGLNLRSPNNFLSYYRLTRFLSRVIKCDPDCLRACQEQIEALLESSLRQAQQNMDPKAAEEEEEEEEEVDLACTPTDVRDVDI

[2] = target: T1, CDK2/Cyclin E; test: CDK2/Cyclin E kinase assay, phosphorylation of Histone 1; type: biochemical
Description: (§1) Histone 1 phosphorylation induced by CDK2/Cyclin E and CDK1/Cyclin B was measured using similar method. The concentration of Histone 1 in the kinase reaction was 1 mg/ml (unless different stated). The kinase reaction was stopped by 75 mM Phosphoric acid (100 μl per well) and the reaction mixture was transferred onto P81 plates. The plates were washed 3 times with 200 μl 75 mM orthophosphoric acid.

[3] = target: T2, CDK1/Cyclin B (Homo sapiens, UniProt P14635); test: CDK1/Cyclin B kinase assay, phosphorylation of Histone 1; type: biochemical
T2 construct: 6xHis; made in house; host or cells: Sf9 insect cells (baculovirus co-expression)
Description: as §1

[4] = target: Cyclin A (Homo sapiens, UniProt P20248); test: Cyclin A binding assay, immobilised biotinyl-Ahx-[…]NH2; conditions: truncated peptides, competitive cyclin A binding
[5] = target: T3, CDK4/Cyclin D1 (Homo sapiens, UniProt P24385); test: CDK4/Cyclin D1 kinase assay, phosphorylation of GST-Rb; type: biochemical
T3 construct: made in house; host or cells: CDK4: Sf9 insect cells (baculovirus)

[6] = target: T2, CDK1/Cyclin B; test: CDK1/Cyclin B kinase assay, phosphorylation of GST-Rb; type: biochemical
Description: GST-Rb phosphorylation, induced by CDK4/Cyclin D1, CDK2/Cyclin E or CDK1/Cyclin B was determined by incorporation of radio-labeled phosphate in GST-Rb(772-928) using radiolabelled ATP in 96-well format in vitro kinase assay. The phosphorylation reaction mixture (total volume 40 μl) consisted of 50 mM HEPES pH 7.4, 20 mM MgCl2, 5 mM EGTA, 2 mM DTT, 20 mM β-glycerophosphate, 2 mM NaF, 1 mM Na3VO4, Protease Inhibitors Cocktail (Sigma, see above), BSA 0.5 mg/ml, 1 μg purified enzyme complex, 10 μl of GST-Rb-Sepharose beads, 100 μM ATP, 0.2 μCi ^32P-ATP. The reaction was carried out for 30 min at 30° C. at constant shaking. At the end of this period 100 μl of 50 mM HEPES, pH 7.4 and 1 mM ATP were added to each well and the total volume was transferred onto GFC filtered plate. The plate was washed 5 times with 200 μl of 50 mM HEPES, pH 7.4 and 1 mM ATP. To each well were added 50 μl scintillant liquid and the radioactivity of the samples was measured on Scintilation counter (Topcount, HP). The IC50 values of different peptides were calculated using GraFit software.

[7] = target: T4, PKCα (Homo sapiens, UniProt P17252); test: Protein Kinase C (PKC) α assay, phosphorylation of Histone 3; type: biochemical; conditions: b250: concentrations up to 100 μM
T4 construct: 6xHis; made in house; host or cells: Sf9 insect cells (baculovirus)
Description: PKCα kinase activity was measured by the incorporation of radio-labeled phosphate in Histone 3. The reaction mixture (total volume 65 μl) consist of 50 mM Tris-HCl, 1 mM Calcium acetate, 3 mM DTT, 0.03 mg/ml Phosphatidylserine, 2.4 μg/ml PMA, 0.04% NP40, 12 mM Mg/Cl, purified PKCα-100 ng, Histone 3, 0.2 mg/ml, 100 μM ATP, 0.2 μCi [γ-^32P]-ATP. The reaction was carried over 15 min at 37° C. in microplate shaker and was stopped by adding 10 μl 75 mM orthophosphoric acid and placing the plate on ice. 50 μl of the reaction mixture was transferred onto P81 filterplate and after washing off the free radioactive phosphate (3 times with 200 μl 75 mM orthophosphoric acid per well) 50 μl of scintillation liquid (Microscint 40) were added to each well and the radioactivity was measured on Scintillation counter (Topcount, HP).

[8] = target: T5, Cyclin D1 (Homo sapiens, UniProt P24385); test: Competitive Cyclin D1 binding assay (ELISA), immobilised biotinylated p21 (149-159)
T5 construct: made in house

[9] = target: Cyclin D1/CDK6 (Homo sapiens, UniProt P24385); test: Cyclin D1/CDK6 kinase inhibition assay; type: biochemical

Row | Compound | IC50 relative to IC50 of p21^WAF1, CDK2-Cyclin E phosphorylation of GST-Rb ([1]; fold higher) | inhibition of CDK2/Cyclin E phosphorylation of GST-Rb, in words ([1]; listed as p21 (141-160)153A) | inhibition of CDK2/Cyclin E phosphorylation of GST-Rb, in words ([1]; listed as p21 (149-160)153A) | inhibition of CDK2/Cyclin E phosphorylation of Histone 1, in words [2] | inhibition of CDK2/Cyclin E phosphorylation of Histone 1, in words ([2]; listed as p21 (141-160)153A) | inhibition of CDK2/Cyclin E phosphorylation of Histone 1, in words ([2]; listed as p21 (149-160)153A) | inhibition of CDK1/cyclin B phosphorylation of histone H1, in words [3] | Cyclin A Binding Maximum Inhibition [4] [%] | inhibition of CDK4/Cyclin D1 phosphorylation of GST-Rb, in words [5] | Kinase Inhibition Cyclin D1/CDK4 % Inhibition ([5]; phosphorylation of pRb) [%] | inhibition of CDK1/cyclin B phosphorylation of GST-pRb, in words [6] | inhibition of PKCα phosphorylation of Histone 3, in words [7] | competition with Biotin-DFYHSKRRLIF for binding to Cyclin D1, in words [8] | Kinase Inhibition Cyclin D1/CDK6 % Inhibition [9] [%]
1 | CC[C@H](C)[C@H](NC(=O)[C@H](CC(C)C)NC(=O)[C@H](CCCNC(=N)N)NC(=O)[C@H](CCCNC(=N)N)NC(=O)[C@H](CCCCN)NC(=O)[C@H](C)NC(=O)[C@H](Cc1c[nH]cn1)NC(=O)[C@H](Cc1ccc(O)cc1)NC(=O)[C@H](Cc1ccccc1)NC(=O)[C@@H](N)CC(=O)O)C(=O)N[C@@H](Cc1ccccc1)C(=O)N[C@@H](CO)C(N)=O [p21(149-160)Ser153Ala] | approximately 50 fold | strong inhibitor | specifically inhibit | completely inactive | not | do not inhibit | did not have any significant effect | – | – | – | – | – | – | –
2 | RRLIF [compound 33] | – | – | – | – | – | – | – | 100 | – | – | – | – | – | –
3 | CC[C@H](C)[C@H](NC(=O)[C@H](CC(C)C)NC(=O)[C@H](CCCNC(=N)N)NC(=O)[C@H](CCCNC(=N)N)NC(=O)[C@H](CCCCN)NC(=O)[C@H](C)NC(=O)[C@@H](N)Cc1c[nH]cn1)C(=O)N[C@@H](Cc1ccccc1)C(N)=O | – | – | – | – | – | – | not effective | – | highest potency | 82 | not effective | did not inhibit | highest potency | 100

Reference: patent publication US20050153894A1, “p21 peptides” (Cyclacel Limited, priority 1999, published 2005)
